Experimental findings from the NIST ThermoML archive (doi:10.1016/j.jct.2015.07.042) are described below.

This series in a line: activity coefficient (dimensionless); of the first substance listed, at infinite dilution; xn = mol fraction of the nth substance listed. To be noted: 101 kPa, Liquid, Chromatography, x1 = 0.

± gives the expanded uncertainty stated by the source.

Turning to `CCCCOCCCC` [dibutyl ether] + CCCCn1cc[n+](C)c1.COP(=O)([O-])OC, the activity coefficient reads like this: (358.15 K) 26.8 ± 1.8; (368.15 K) 26.2 ± 1.8; (378.15 K) 25.9 ± 1.8; (388.15 K) 25.5 ± 1.7.
In the same order, the values of `CCCCOCCCC` [dibutyl ether] + CCCCn1cc[n+](C)c1.[Cl-] are 130 ± 8.9, 125 ± 8.6, 118 ± 8.1 and 116 ± 8.
Take `CCCCOCCCC` [dibutyl ether] + CCCCn1cc[n+](C)c1.CS(=O)(=O)[O-]: the activity coefficient runs as follows: (358.15 K) 83.9 ± 5.8; (368.15 K) 82.1 ± 5.6; (378.15 K) 81.5 ± 5.6; (388.15 K) 80.5 ± 5.5.
